Drawing on patent US9688712B2, “Manufacturing method for polyphenol composition” (KAO CORPORATION, priority 2010, dated 2017), this text covers logP for one compound.

The nature of the data set: Measurement of log P value of the hardly water-soluble polyphenols (flask shaking method, JIS Z7260-107). The procedure: The log P value is a common logarithm of the partition coefficient between 1-octanol, and water and an index indicative of a hydrophobicity of an organic compound. Larger positive log P value indicates larger hydrophobicity. […] The details are described in Examples.
[Measurement of Log P Value of the Hardly Water-Soluble Polyphenols]
First, 1-octanol and distilled water were shaken for 24 hours at 25° C. to equilibrate them. Then, 10 mg of polyphenol was weighed into a glass vial with a cap, into which each of 4 mL of the equilibrated 1-octanol and water was added. The vial was shaken for 4 days at 25° C. […] Log P value is a common logarithm of the partition coefficient between the two phases.

SMILES strings stand for the structures.

As usually defined, the logP is the decadic logarithm of the partition coefficient of the neutral form, usually between octanol and water. Lower therefore signals lower lipophilicity.

`C[C@@H]1O[C@@H](OC[C@H]2O[C@@H](Oc3c(-c4ccc(O)c(O)c4)oc4cc(O)cc(O)c4c3=O)[C@H](O)[C@@H](O)[C@@H]2O)[C@H](O)[C@H](O)[C@H]1O` [rutin] came in with a logP at 4 days of -0.33.
